Earlier results as cited in patent US5231089A, “Method of improving oral bioavailability of carbamazepine” (priority 1992, dated 1993).

Details: 15 mg/mL hydroxypropyl-β-cyclodextrin (Uekama et al); cited from earlier work

For `O=[N+]([O-])O[C@H]1CO[C@H]2[C@@H]1OC[C@H]2O[N+](=O)[O-]`, the solubilization in water is listed as “improved solubilization”.
